Test system: nNOS
Assay: In vitro NOS inhibition, hemoglobin capture assay
Assay type: biochemical
Details: ratio of Ki values, eNOS over nNOS

Compound `NC(=O)[C@@H]1C[C@@H](NC(=O)[C@@H](N)CCC/N=C(\N)N[N+](=O)[O-])CN1` [compound 3, L-N^ω-nitroarginine-(4R)-amino-L-proline amide, reference compound] has an eNOS/nNOS of 1100.
